Experimental data: patent publication US20220204611A1 (Amgen, published 2022)

Tests used:
[1] = target: T1, human TREM1 on a cell line stably expressing human TREM1/DAP12 (human, UniProt Q9NP99 21-234); experiment: FACS on cell line stably expressing human TREM1/DAP12
T1 construct: signal peptide 1-20 left out

[2] = target: T1, human TREM1 on a cell line stably …; experiment: FACS, human TREM1/DAP12 cell line
human TREM2 on cells = target: T2, human TREM2 on cells (human, UniProt Q9NZC2 19-230); experiment: cell-based or functional assay
T2 sequence: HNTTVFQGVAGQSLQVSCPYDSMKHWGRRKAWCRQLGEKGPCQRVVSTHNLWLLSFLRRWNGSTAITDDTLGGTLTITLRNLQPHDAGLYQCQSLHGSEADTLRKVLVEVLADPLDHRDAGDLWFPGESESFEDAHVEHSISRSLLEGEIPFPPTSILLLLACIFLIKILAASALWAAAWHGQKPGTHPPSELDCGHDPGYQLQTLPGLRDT

mouse TREM2 on cells = target: T3, mouse TREM2 on cells (mouse, UniProt Q99NH8 19-227); experiment: FACS, transfected HEK293 cells
T3 construct: whole, on cells
T3 sequence (looked up): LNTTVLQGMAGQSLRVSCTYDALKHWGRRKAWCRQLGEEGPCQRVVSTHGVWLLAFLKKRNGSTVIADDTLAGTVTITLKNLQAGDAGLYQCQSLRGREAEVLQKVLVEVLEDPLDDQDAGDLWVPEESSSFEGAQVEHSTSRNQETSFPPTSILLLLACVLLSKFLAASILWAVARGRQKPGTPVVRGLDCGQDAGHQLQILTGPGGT

[3] = target: T4, cynomolgus TREM2 on transfected HEK293 cells (cynomolgus, UniProt A0A2K5UY34 49-260); experiment: FACS, transfected HEK293 cells
T4 construct: also called Cyno TREM2
T4 sequence: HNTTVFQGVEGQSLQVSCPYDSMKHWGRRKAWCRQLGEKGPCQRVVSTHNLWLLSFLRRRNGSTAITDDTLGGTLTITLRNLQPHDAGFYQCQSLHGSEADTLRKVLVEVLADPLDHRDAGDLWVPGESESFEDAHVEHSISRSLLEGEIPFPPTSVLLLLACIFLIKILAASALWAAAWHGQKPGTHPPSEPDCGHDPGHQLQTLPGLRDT

B1: 12G10 (antibody, human IgG2, V domains shown)
VH: EVQLLESGGGLVQPGGSLRLSCAASGFTFSSYAMSWVRQAPGKGLEWVSAIGGGGVSTYCADSVKGRFTISRDNSKNTLYLQMNSLRAEDTAVYYCAKFYIAVAGSHFDYWGQGTLVTVSS
VL: QAVPTQPSSLSASPGVLASLTCTLRSGINVGTYRIYWYQQKPGSPPQYLLRYKSDSDKQQGSGVPSRFSGSKDASANAGILLISGLQSEDEADYYCMIWYSSAVVFGGGTKLTVL
notes: human IgG2 from hybridoma
binding result [1]: no binding
GM fold over irrelevant control antibody [2]: 1.1 fold
pSyk fold over control (human TREM2 on cells): 11.1 fold
GM fold over irrelevant control antibody (mouse TREM2 on cells): 1.1 fold

B2: 16B8 (antibody, human IgG4, V domains shown)
VH: QVQLVQSGAEVKKPGASVKVSCKASGYTFTNYGISWVRQAPGQGLEWMGWISAYNGNTNYAQKLQGRVTMTTDTSTSTVYMELRSLRSDDTAVYYCARRGYSYGSFDYWGQGTLVTVSS
VL: DIQMTQSPSSVSASVGDRVTVTCRASQDINSWLAWYQQKPGKAPKLLIYAASSLQTGVPSRFSGSGSGTDFTLTISSLQPEDFATYSCQQSNSFPITFGQGTRLEIK
notes: human IgG4 (G4) from hybridoma
binding result [1]: no binding
GM fold over irrelevant control antibody [2]: 1.1 fold
GM fold over irrelevant control antibody [3]: 23.3 fold
GM fold over irrelevant control antibody (mouse TREM2 on cells): 1.1 fold

B3: 32E3 (antibody, human IgG2, V domains shown)
VH: EVQLVQSGAEVKKPGESLKISCKGSGYSFTSYWIGWVRQMPGKGLEWMGIIYPGDSDTRYSPSFQGQVTISADKSISTAYLQWSTLKASDTAIYYCARHDIIPAAPGAFDIWGQGTMVTVSS
VL: EFVLTQSPGTLSLSPGERATLSCRASQIISSNYLAWYQQKPGQAPRLLIYSASSRATGIPDRFSGSGSGTDFTLTISRLEPEDFAVYYCQQFDSSPITFGRGTRLDIK
notes: human IgG2 from hybridoma
binding result [1]: no binding
GM fold over irrelevant control antibody [2]: 1.1 fold
pSyk fold over control (human TREM2 on cells): 8.2 fold
GM fold over irrelevant control antibody [3]: 31 fold
GM fold over irrelevant control antibody (mouse TREM2 on cells): 1 fold

B4: 24A10 (antibody, human IgG2, V domains shown)
VH: EVQVLESGGGLVQPGGSLRLSCAASGFTFSNYAMSWVRQAPGKGLEWVSAISGSGGSTYYADSVKGRFTISRDNSKNTLYLQMNSLRAEDTAVYYCAKGGWELFYWGQGTLVTVSS
VL: not shown
notes: human IgG2 from hybridoma
binding result [1]: no binding
GM fold over irrelevant control antibody [2]: 1.1 fold
pSyk fold over control (human TREM2 on cells): 6.8 fold
GM fold over irrelevant control antibody [3]: 1.4 fold
GM fold over irrelevant control antibody (mouse TREM2 on cells): 1.1 fold

B5: 25F12 (antibody, human IgG2, V domains shown)
VH: QVQLQQWGAGLLKPSETLSLTCAVYGGSFSSYYWSWIRQPPGKGLEWIGEINHSGNTNYNPSLKSRVTISVDTSKNQFSLKLSSVTAADTAVYYCAREGYYDILTGYHDAFDIWDQGTMVTVFS
VL: not shown
notes: human IgG2 from hybridoma
binding result [1]: no binding
GM fold over irrelevant control antibody [2]: 1.2 fold
pSyk fold over control (human TREM2 on cells): 4.2 fold
GM fold over irrelevant control antibody [3]: 2.2 fold
GM fold over irrelevant control antibody (mouse TREM2 on cells): 0.8 fold

B6: 26A10 (antibody, V domains shown)
VH: EVQLVESGGALVQRGGSLRLSCAASRFTFSSFGMSWVRQAPGKGLEWVSYISSSSFTIYYADSVKGRFTISRDNAKNSFYLQMNSLRDEDTAVYYCAREGGLTMVRGVSSYGLDVWGQGTTVTVSS
VL: not shown
notes: human IgG2 from hybridoma
binding result [1]: no binding
GM fold over irrelevant control antibody [2]: 1.5 fold
pSyk fold over control (human TREM2 on cells): 6 fold
GM fold over irrelevant control antibody [3]: 37.5 fold
GM fold over irrelevant control antibody (mouse TREM2 on cells): 0.8 fold

B7: 26F2 (antibody, V domains shown)
VH: EVQLVESGGALVQPGGSLRLSCAASGFTFSSFGMSWVRQAPGKGLEWISYISSSSFTIYYADSVKGRFTISRDNAKNSFYLQMNSLRDEDTAVYFCAREGGITMVRGVSSYGMDVWGQGTTVTVSS
VL: not shown
notes: human IgG2 from hybridoma
pSyk fold over control (human TREM2 on cells): 5.4 fold
GM fold over irrelevant control antibody [3]: 72.8 fold
GM fold over irrelevant control antibody (mouse TREM2 on cells): 1.1 fold
